Legend:
Assay type in all cases: cell-based, human
p70^s6k = p70^s6k activation in fibroblasts (S6 peptide phosphorylation; western blot Thr389); details: GD fibroblasts; IgG 100 ng/ml; Thr389 western blot or S6 peptide phosphorylation
Procedure: Confluent monolayers of orbital fibroblasts from two patients with GD (A and B) or a single donor with normal orbital tissue (C) were incubated with nothing (control), normal IgG (100 ng/ml), GD-IgG (100 ng/ml) or IL-1β (10 ng/ml for 15 minutes, cells were rinsed and harvested in lysis buffer. Equivalent amounts of protein were subjected to western blot analysis with pan anti-p70^s6k, phospho-specific anti-p70^s6k Thr389, or anti-actin antibodies. Signals were generated with the ECL method. Column heights represent p70^s6k Thr389 signal densities corrected for their respective actin levels.
As the data in FIG. 2A indicate, TSI activates p70^s6κ. […] The effect of TSI on IL-16 synthesis is time-dependent and has been observed with sera and purified IgG from 6 different patients with severe TAO and has been replicated using three different TAO fibroblast strains.
The induction of IL-16 protein by Graves' IgG is blocked by rapamycin whereas that of RANTES is not. Referring to FIG. 1B, to determine whether Graves' IgG increased levels of activated p70^s6k, Graves'-IgG (100 ng/ml) is determined by western blot immunoblot analysis with a primary antibody specific for p70^s6k phosphorylated at Thr^389. […] Given the ability of rapamycin to block, the activation of p70^s6k appears essential for the induction by Graves' IgG of IL-16 fibroblasts.

IL-16 = IL-16 ELISA of medium from treated fibroblasts, GD donors; details: TAO orbital fibroblasts, IGF-1 10 nM, TSH high concentrations
Text: (§1) In addition to its therapeutic aspects, the present invention also relates to a diagnostic method for detecting the presence of antibody-activated fibroblasts in the patient. Applicants believe that several auto immune diseases or disorders are associated with antibody-activated fibroblasts. Applicants have shown that increased activation of fibroblasts by auto-antibodies can be monitored by determining the levels of IL-16 and/or RANTES production in a patient. Altered levels of these chemoattractants can be detected in various biological samples in mammals, preferably humans. Levels of IL-16 and/or RANTES may be monitored in a patient, using standard techniques, as an indication of the deleterious aspects of the disease condition. Biological samples, including but not limited to serum, vitreous humor, aqueous humor, synovial fluid, and tissue, will be drawn from the patient using standard techniques. Particularly preferred are serum samples. The measurement of the IL-16 and RANTES levels may be monitored using any method possible to detect the levels of these proteins in biological samples. A preferred method of analysis is by ELISA as described in Sciaky, D. et al., J. Immunol. 164(7):3806-14, 2000. […]
(§2) The levels of IL-16 and RANTES were then assessed with specific ELISAs. […]

RANTES = RANTES ELISA of medium from treated fibroblasts, GD donors; details: TAO orbital fibroblasts; IGF-1 10 nM, TSH high concentrations
Text: as §1, §2

Substance: recombinant TSH: thyrotropin (Thyroid Stimulating Hormone)
- activation of p70^s6k (p70^s6k): does not activate
- induction of IL-16 expression by the substance itself (IL-16): does not
- induction of IL-16 expression by the substance itself (IL-16; listed as TSH): fails to provoke
- induction of RANTES expression by the substance itself (RANTES): fails to provoke

— US7998681B2, “Diagnosis and therapy of antibody-mediated inflammatory auto-immune disorders” (Los Angeles Biomedical Research Institute at Harbor-UCLA …, priority 2000, dated 2011)
